Sequences of proteins named here, by UniProt entry; tags and fusion partners are left off.
UniProt P20272, whole entry: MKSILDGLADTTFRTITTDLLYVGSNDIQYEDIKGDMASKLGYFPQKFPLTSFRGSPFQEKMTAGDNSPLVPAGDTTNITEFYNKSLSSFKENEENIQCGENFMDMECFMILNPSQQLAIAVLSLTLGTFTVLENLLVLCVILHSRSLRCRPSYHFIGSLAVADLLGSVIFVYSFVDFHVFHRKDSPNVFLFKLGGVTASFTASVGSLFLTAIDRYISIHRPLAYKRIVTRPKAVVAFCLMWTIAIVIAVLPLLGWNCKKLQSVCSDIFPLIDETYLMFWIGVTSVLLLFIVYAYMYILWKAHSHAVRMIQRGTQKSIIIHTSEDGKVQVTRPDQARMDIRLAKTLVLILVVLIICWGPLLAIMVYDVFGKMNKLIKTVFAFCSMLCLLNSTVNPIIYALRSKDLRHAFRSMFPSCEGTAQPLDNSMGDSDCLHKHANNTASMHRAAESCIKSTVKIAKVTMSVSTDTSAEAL

According to patent US20260234099A1, “Endocannabinoid ligands and related analogs” (Northeastern University, priority 2023, published 2026):

How the values were obtained:
CB1 receptor = CB1 receptor (Rattus norvegicus, UniProt P20272); assay: CB1 receptor binding affinity (Ki)
Protocol: (§1) Some disclosed compounds were tested for CB1 and CB2 receptor binding affinity (Tables 1, 2, 3, 4, 5). As used herein “binding affinity” is represented by the Ki value. The Ki value is the affinity constant and describes the affinity of the compound for the receptor. The lower the Ki value, the higher the affinity of the compound for the receptor. A detailed description of the methods used to test “binding affinity” of compounds is given in Makriyannis, et al., US 2007/0135388 the content of which is hereby incorporated by reference.

CB2 receptor = CB2 receptor (Homo sapiens, UniProt P34972); assay: CB2 receptor binding affinity (Ki); design: CB2 receptor Ki; CB2 receptor Ki (PMSF); other: with PMSF
Protocol: as §1

**Q.** How did the Ki (CB1 receptor; with PMSF, read-out: CB1 Receptor Ki with PMSF) turn out when `CCCCC/C=C\C/C=C\C/C=C\C/C=C\CCCC(=O)NCCO` [AEA, N-arachidonoyl ethanolamine, reference compound] was run?
**A.** 10 to 200 nM

**Q.** What about the Ki (CB1 receptor; without PMSF, read-out: CB1 receptor affinity Ki) of the same molecule?
**A.** > 1000 nM

**Q.** What about the Ki (CB2 receptor) of the same molecule?
**A.** 10 to 200 nM

Read-outs that look alike come from different tables or passages of the source.
